The target of experiment [1] is T1, Dihydrofolate reductase (Gallus gallus) (UniProt P00378).
T1 sequence (whole entry): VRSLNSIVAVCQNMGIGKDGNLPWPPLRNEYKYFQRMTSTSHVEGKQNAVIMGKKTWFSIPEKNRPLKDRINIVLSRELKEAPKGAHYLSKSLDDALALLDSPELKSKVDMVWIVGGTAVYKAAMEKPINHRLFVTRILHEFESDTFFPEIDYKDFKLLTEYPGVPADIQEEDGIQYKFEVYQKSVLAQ

The target of experiment [2] is T1, Dihydrofolate reductase (Gallus gallus). Nature of the experiment: Inhibitory activity against chicken Dihydrofolate reductase at pH 7.2.

Consider `Cc1ccc(Cc2cnc(N)nc2N)cc1`, for which the Log 1/Ki app in experiment [1] was determined as 4.56.

As to `CC(=O)Nc1ccc(Cc2cnc(N)nc2N)cc1[N+](=O)[O-]`, the Log 1/Ki app in experiment [1] came out at 4.34.

As to `COCc1cccc(Cc2cnc(N)nc2N)c1`, the Log 1/Ki app in experiment [1] is 4.37.

`CCCCOc1ccc(Cc2cnc(N)nc2N)cc1` showed a Log 1/Ki app in experiment [1] of 4.67.

As for `Nc1ncc(Cc2ccc(Br)cc2)c(N)n1`, in experiment [1], the Log 1/Ki app came out at 4.79.

`CS(=O)(=O)Oc1cccc(Cc2cnc(N)nc2N)c1` showed a Log 1/Ki app in experiment [1] of 4.33.

Compound `Nc1ncc(Cc2ccc(Cl)cc2)c(N)n1` returned a Log 1/Ki app in experiment [1] of 4.83.

`Nc1ncc(Cc2cc(CO)cc(CO)c2)c(N)n1`: the Log 1/Ki app in experiment [1] was found to be 3.23.

`Nc1ncc(Cc2ccc(O)c(O)c2)c(N)n1` yielded a Log 1/Ki app in experiment [1] of 3.59.

The compound `COCCOc1ccc(Cc2cnc(N)nc2N)cc1OCCOC` yielded a Log 1/Ki app in experiment [2] of 3.91.

Compound `Nc1ccc(Cc2cnc(N)nc2N)cc1` had a Log 1/Ki app in experiment [1] of 3.73.

In the case of `Nc1ncc(Cc2cccc(C(F)(F)F)c2)c(N)n1`, the Log 1/Ki app in experiment [1] is 4.92.

In experiment [2], `COCCOc1ccc(Cc2cnc(N)nc2N)cc1` displayed a Log 1/Ki app of 4.26.

In experiment [1], `Nc1ncc(Cc2cccc(Br)c2)c(N)n1` registered a Log 1/Ki app of 5.03.

Regarding `Nc1ncc(Cc2cccc(O)c2)c(N)n1`, in experiment [1], the Log 1/Ki app was 3.87.

For the compound `CCCCCCOc1ccc(Cc2cnc(N)nc2N)cc1`, in experiment [2], the Log 1/Ki app was 4.71.

On to `NC(=O)COc1cccc(Cc2cnc(N)nc2N)c1`, for which, in experiment [2], the Log 1/Ki app worked out at 4.27.

For `Nc1ncc(Cc2cccc(CO)c2)c(N)n1`, the Log 1/Ki app in experiment [1] was found to be 4.31.

Source of the values: ChEMBL document CHEMBL1122156, “A comparison of the inhibitory action of 5-(substituted-benzyl)-2,4-diaminopyrimidines on dihydrofolate reductase from chicken liver with that from bovine liver” (J Med Chem, 1982).
